# Test results as given in patent publication US20230159655A1 (AKESO BIOPHARMA, published 2023).
# T1: human NT5E-Biotin (NT5E, GenbankID: NP_002517.1, position: 1-552) (human, UniProt P21589 27-552, biotin (site not stated))
# T1 construct: range 1-552; Biotinylated antigen captured on streptavidin-coated plates; also called HNT5E-Biotin; human NTSE-Biotin
# T1 sequence (looked up): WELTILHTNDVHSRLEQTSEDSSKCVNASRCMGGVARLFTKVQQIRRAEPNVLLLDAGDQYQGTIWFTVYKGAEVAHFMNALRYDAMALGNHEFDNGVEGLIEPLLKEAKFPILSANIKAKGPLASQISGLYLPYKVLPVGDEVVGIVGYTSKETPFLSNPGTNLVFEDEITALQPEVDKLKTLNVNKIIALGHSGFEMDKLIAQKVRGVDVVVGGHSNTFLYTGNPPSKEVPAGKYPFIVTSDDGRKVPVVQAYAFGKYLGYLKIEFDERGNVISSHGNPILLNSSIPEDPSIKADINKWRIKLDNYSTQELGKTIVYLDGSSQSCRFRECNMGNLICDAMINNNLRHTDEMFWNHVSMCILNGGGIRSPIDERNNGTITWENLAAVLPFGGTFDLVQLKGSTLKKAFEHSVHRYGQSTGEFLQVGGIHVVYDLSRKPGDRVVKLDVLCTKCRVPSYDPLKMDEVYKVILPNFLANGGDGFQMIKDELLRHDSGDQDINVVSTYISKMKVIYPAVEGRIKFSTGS
# T2: human NT5E(1-552)-his (human, UniProt P21589 27-552)
# T2 construct: range 1-552; also called HNT5E(1-552)-his; human HNT5E (1-552)-his; not shown: His tag
# T2 sequence (looked up): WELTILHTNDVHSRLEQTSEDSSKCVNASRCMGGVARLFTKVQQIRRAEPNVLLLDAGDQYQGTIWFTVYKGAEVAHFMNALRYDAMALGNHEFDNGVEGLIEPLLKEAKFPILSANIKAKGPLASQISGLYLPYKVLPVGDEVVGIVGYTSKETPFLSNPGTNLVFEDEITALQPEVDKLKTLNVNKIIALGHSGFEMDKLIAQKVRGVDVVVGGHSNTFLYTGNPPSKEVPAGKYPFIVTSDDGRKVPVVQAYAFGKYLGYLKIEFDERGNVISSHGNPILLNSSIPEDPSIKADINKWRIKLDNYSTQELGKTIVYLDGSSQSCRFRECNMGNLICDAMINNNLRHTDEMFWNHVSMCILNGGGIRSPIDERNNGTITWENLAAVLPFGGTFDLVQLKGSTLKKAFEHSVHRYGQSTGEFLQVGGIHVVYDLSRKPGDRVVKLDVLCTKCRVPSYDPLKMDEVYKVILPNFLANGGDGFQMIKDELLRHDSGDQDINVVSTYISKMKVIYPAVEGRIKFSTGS
# What was measured:
# [1] = target: T1, human NT5E-Biotin (NT5E, GenbankID: …); test: ELISA on SA-captured NT5E-Biotin; antibody 0.333 ug/mL; replicate 1
# Method: (§1) Experimental steps: a microplate was coated with streptavidin at 2 μg/mL, and then the microplate was incubated at 4° C. for 12 hours. The antigen-coated microplate was rinsed for once with PBST after incubation, and then blocked with a PBST solution containing 1% BSA as a microplate blocking solution for 2 hours. After blocking, the microplate was washed 3 times with PBST. […] The antibody serially diluted with the PBST solution was added to the wells of the microplate. The microplate containing the test antibodies was incubated at 37° C. for 30 minutes, and then washed 3 times with PBST. After the plate was washed, the secondary antibody working solution of HRP-labeled goat anti-human IgG (H+L) (Jackson, Cat. No. 109-035-088) diluted in a ratio of 1:5000 or HRP-labeled goat anti-mouse IgG (H+L) (Jackson, Cat. No. 115-035-062) diluted in a ratio of 1:5000 was added, and then the plate was incubated at 37° C. for 30 minutes. After incubation, the plate was washed 4 times with PBST, TMB (Neogen, 308177) was added in the dark for color development for 5 min, and then a stop solution was added to terminate chromogenic reaction. The microplate was put into a microplate reader immediately, and the OD value of each well in the microplate was read at the light wavelength of 450 nm. The data were analyzed by SoftMax Pro 6.2.1.
# [2] = target: T1, human NT5E-Biotin (NT5E, GenbankID: …); test: ELISA on SA-captured NT5E-Biotin; antibody 0.333 ug/mL diluted 1:729; replicate 1
# Method: as §1
# [3] = target: T1, human NT5E-Biotin (NT5E, GenbankID: …); test: ELISA on SA-captured NT5E-Biotin; antibody 0.333 ug/mL diluted 1:3; replicate 1
# Method: as §1
# [4] = target: T1, human NT5E-Biotin (NT5E, GenbankID: …); test: ELISA on SA-captured NT5E-Biotin; antibody 0.333 ug/mL diluted 1:243; replicate 2
# Method: as §1
# [5] = target: T1, human NT5E-Biotin (NT5E, GenbankID: …); test: ELISA on SA-captured NT5E-Biotin, anti-human IgG-HRP
# Method: as §1
# [6] = target: T1, human NT5E-Biotin (NT5E, GenbankID: …); test: ELISA on SA-captured NT5E-Biotin; antibody 0.333 ug/mL; replicate 2
# Method: as §1
# [7] = target: T1, human NT5E-Biotin (NT5E, GenbankID: …); test: ELISA on SA-captured NT5E-Biotin; antibody 0.333 ug/mL diluted 1:81; replicate 2
# Method: as §1
# [8] = target: T1, human NT5E-Biotin (NT5E, GenbankID: …); test: ELISA on SA-captured NT5E-Biotin; antibody 0 (blank); replicate 2
# Method: as §1
# [9] = target: T1, human NT5E-Biotin (NT5E, GenbankID: …); test: ELISA on SA-captured NT5E-Biotin; antibody 0 (blank); replicate 1
# Method: as §1
# [10] = target: T1, human NT5E-Biotin (NT5E, GenbankID: …); test: ELISA on SA-captured NT5E-Biotin; antibody 0.333 ug/mL diluted 1:729; replicate 2
# Method: as §1
# [11] = target: T1, human NT5E-Biotin (NT5E, GenbankID: …); test: ELISA on SA-captured NT5E-Biotin; antibody 0.333 ug/mL diluted 1:243; replicate 1
# Method: as §1
# [12] = target: T1, human NT5E-Biotin (NT5E, GenbankID: …); test: ELISA on SA-captured NT5E-Biotin; antibody 0.333 ug/mL diluted 1:27; replicate 1
# Method: as §1
# [13] = target: T1, human NT5E-Biotin (NT5E, GenbankID: …); test: ELISA on SA-captured NT5E-Biotin; antibody 0.333 ug/mL diluted 1:9; replicate 1
# Method: as §1
# [14] = target: T1, human NT5E-Biotin (NT5E, GenbankID: …); test: ELISA on SA-captured NT5E-Biotin; antibody 0.333 ug/mL diluted 1:81; replicate 1
# Method: as §1
# [15] = target: T2, human NT5E(1-552)-his; test: Fortebio BLI, antibody on Protein A sensor, antigen 3.125-200 nM, 37 C, 1:1 fit
# Method: The sample dilution buffer was PBST, pH 7.4. […] The detection temperature was 37° C., the detection frequency was 0.6 Hz, and the sample plate shaking rate was 1000 rpm. The data were analyzed by 1:1 model fitting to obtain affinity constants.
# [16] = target: T1, human NT5E-Biotin (NT5E, GenbankID: …); test: ELISA on SA-captured NT5E-Biotin; antibody 0.333 ug/mL diluted 1:9; replicate 2
# Method: as §1
# [17] = target: T1, human NT5E-Biotin (NT5E, GenbankID: …); test: ELISA on SA-captured NT5E-Biotin; antibody 0.333 ug/mL diluted 1:3; replicate 2
# Method: as §1
# [18] = target: T1, human NT5E-Biotin (NT5E, GenbankID: …); test: ELISA on SA-captured NT5E-Biotin; antibody 0.333 ug/mL diluted 1:27; replicate 2
# Method: as §1
OD 450 nm [1],OD 450 nm [2],OD 450 nm [3],OD 450 nm [4],EC50 [5],OD 450 nm [6],OD 450 nm [7],OD 450 nm [8],OD 450 nm [9],OD 450 nm [10],OD 450 nm [11],OD 450 nm [12],OD 450 nm [13],OD 450 nm [14],Kd [15],koff [15],kon [15],OD 450 nm [16],OD 450 nm [17],OD 450 nm [18],Binder
2.6 OD450,0.239 OD450,2.58 OD450,0.454 OD450,0.064 nM,2.69 OD450,0.933 OD450,0.123 OD450,0.119 OD450,0.247 OD450,0.434 OD450,1.58 OD450,2.16 OD450,0.87 OD450,0.259 nM,0.000124 s⁻¹,480000 M⁻¹ s⁻¹,2.33 OD450,2.62 OD450,1.68 OD450,"humanized anti-human CD73 antibody 19F3H2L2 (antibody, IgG1, V domains shown) VH: QVQLVQSGAEVVKPGASVKVSCKASGYSFTGYTMNWVRQAPGQNLEWIGLINPYNAGTSYNQKFQGKVTLTVDKSTSTAYMELSSLRSEDTAVYYCARSEYRYGGDYFDYWGQGTTLTVSS VL: DIVMTQSPSSLAVSVGERVTISCKSSQSLLNSSNQKNYLAWYQQKPGQAPKLLIYFASTRESGVPDRFSGSGSGTDFTLTISSVQAEDVADYYCQQHYDTPYTFGGGTKLEIKR"
2.65 OD450,0.26 OD450,2.6 OD450,0.516 OD450,0.049 nM,2.64 OD450,1.03 OD450,0.123 OD450,0.125 OD450,0.273 OD450,0.525 OD450,1.82 OD450,2.41 OD450,1.04 OD450,–,–,–,2.33 OD450,2.7 OD450,1.82 OD450,"humanized anti-human CD73 antibody 19F3H1L1 (antibody, IgG1, V domains shown) VH: QVQLQQSGAEVVKPGASMKMSCKASGYSFTGYTMNWVKQAHGQNLEWIGLINPYNAGTSYNQKFQGKATLTVDKSTSTAYMELSSLRSEDTAVYYCARSEYRYGGDYFDYWGQGTTLTVSS VL: not shown"
